This experiment has as its target σ-2 receptor (Rattus norvegicus (Rat), UniProt Q5U3Y7). The experiment is described as follows: σ-2 receptor binding in rat brain homogenates ([3H]DTG plus (+)-pentazocine). The note with it: read-out: Ki (nM) σ2; compound listing tables.

Amino acid sequences for entries named in this document (tags omitted). A change or cut given only in a name is not applied to a line headed by its entry.
UniProt Q5U3Y7: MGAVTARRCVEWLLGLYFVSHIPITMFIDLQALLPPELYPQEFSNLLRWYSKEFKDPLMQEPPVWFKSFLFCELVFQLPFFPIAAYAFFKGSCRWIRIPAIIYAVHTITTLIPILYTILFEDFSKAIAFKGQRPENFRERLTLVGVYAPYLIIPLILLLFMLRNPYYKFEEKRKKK

Turning to `COc1cc2c(cc1OC)CN(CCCCn1ccc3ccccc31)CC2` [CM 360], the Ki is 0.21 ± 0.02 nM.
